# Data taken from patent publication US6491840B1, “Polymer compositions having specified PH for improved dispensing and improved stability of wrinkle reducing compositions and methods of use” (The Procter & Gamble Company, priority 2000, dated 2002).
# Assay: Buffering capacity dB/dpH calculated from ionization constant
# Conditions: 0.1 g per liter triethanolamine, pH raised from 6.8 to 9; calculated from equation
smiles,measurement,value
OCCN(CCO)CCO,buffering capacity dB/dpH,0.00011
